# Experiments:
# [1] = test system: BCG vaccine and lipopolysaccharide-induced immunological liver damage; design: species or system Wistar Rats; details: rat, in vivo, ip
# [2] = test system: tetrachloromethane-induced liver damage; test: Tetrachloromethane-induced liver damage of mice; format: in vivo, BALB/c mice; details: 750 thousand units/kg intraperitoneal, every day for 7 days
# From the text: BALB/c mice, each of which is 18 g˜22 g weight, and purchased from Shanghai Slac Laboratory Animal, Inc., were divided randomly into 8 groups as follows with 10 rats in each group: (1) the diammonium glycyrrhizinate injection group, injected with diammonium glycyrrhizinate; (2) the interferon group, injected with recombinant human interferon-α2a); (3) the high dose group, immunized with Peptide A and adjuvant; (4) the medium dose group, immunized with Peptide A and adjuvant; (5) the low dose group, immunized with Peptide A and adjuvant; (6) the adjuvant control group, immunized with adjuvant only; (7) the blank control group; and (8) the model group.
# At the first before the first immunization, 0.05 ml CCl4 (available from Shanghai Linfen Chemical Reagent Co., Ltd.) was administered via subcutaneous injection to each mouse of all groups other than the blank control group; and the equivalent volume of physiological saline was injected for the blank control group. […]
substance,measurement,setting,value
"interferon: recombinant human interferon-α2a purchased from Shenyang Sunshine Pharmaceutical Co., Ltd. [reference compound]",pathological conditions (score) versus model group,[1],alleviated significantly
same,activity to decrease the level of aminotransferase,[2],no significant activities
same,tetrachloromethane-induced hepatomegaly of mice,[2],no significant activity
